Reference: US20250170151A1 (REMEDY PHARMACEUTICALS, INC., priority 2022, published 2025)

Assay: Glyburide solubility in intravenous dosing solutions
Assay type: physicochemical
Conditions: formulations of the present disclosure at three-fold higher concentrations

COc1ccc(Cl)cc1C(=O)NCCc1ccc(S(=O)(=O)NC(=O)NC2CCCCC2)cc1 [glyburide, 5-chloro-N-(4-[N-(cyclohexylcarbamoyl)sulfamoyl]phenethyl)-2-methoxybenzamide]
loss of glyburide due to precipitation or sorption: no detectable loss
